# Values quoted from earlier work as cited in patent publication US9682040B2, “Phospholipid depot” (priority 2010, dated 2017).
# Details: published (Reeves 1980)
substance,measurement,value
gentamicin,plasma concentrations to which gentamicin toxicity (renal and ototoxicity) is related,greater than 10 mg/L
